Values of other authors, collected in US20190185438A1 (Tonix Pharmaceuticals Holding Corp., priority 2016, published 2019).

Tested on: patients with fibromyalgia
Conditions: 8 weeks

CCOc1ccccc1O[C@@H](c1ccccc1)[C@@H]1CNCCO1 [Esreboxetine, (2S)-2-[(S)-(2-ethoxyphenoxy)-phenylmethyl]morpholine]
Outcomes relevant to fibromyalgia, including the PGIC, function, and fatigue: improvements
